Laboratory results published in paper PMC8585690 (Toxicology, 2021).

Assay: Literature-based in vivo clinical clearance, AUC and bioavailability

mean oral clearance adjusted for absorption (human, oral, mean of all available values, adjusted for incomplete absorption): 6.64 L/h | extraction ratio (i.v. clearance 7.1 L/hr / hepatic blood flow 87 L/hr): 0.082
Compound: Cc1ccc(C(=O)c2cc(O)c(O)c([N+](=O)[O-])c2)cc1 [Tolcapone]
